Assay results from US5430148A, “Antiproliferative quinazolines” (Agouron Pharmaceuticals, Inc., priority 1992, dated 1995).

Assays:
Assay type in all cases: cell-based
CCRF-CEM cells = assay: Inhibition of growth of tumor cells, CCRF-CEM human lymphoblastic leukemia (MTT); conditions: 120 h, 5 days continuous exposure, read-out: Cell Culture IC50, CCRF-CEM
[1] = test system: L1210 murine leukemia cells; assay: Inhibition of growth of tumor cells, L1210 murine leukemia (MTT); conditions: Mus musculus, L1210, 72 h, 3 days continuous exposure, read-out: Cell Culture IC50, L1210
GC3/M TK- cells = assay: Inhibition of growth of tumor cells, thymidine kinase-deficient human colon adenocarcinoma GC3/M TK- (MTT); conditions: GC3/MTK-, 120 h, 5 days continuous exposure, read-out: Cell Culture IC50, GC3-M (TK-)

Row | Compound | IC50 (CCRF-CEM cells) | IC50 [1] | IC50 (GC3/M TK- cells)
1 | Cc1nc2ccc(C)c(Sc3ccnnc3)c2c(=O)[nH]1 [Compound 29A] | 10.5 µM | – | –
2 | COc1cc(Sc2c(C)ccc3nc(C)[nH]c(=O)c23)ccn1 [Compound 16A, 3,4-Dihydro-2,6-dimethyl-4-oxo-5-[4-(6-methoxypyridylthio)]quinazoline] | 3.8 µM | 3.1 µM | –
3 | Cc1nc2ccc(C)c(Sc3ccnc(C(F)(F)F)c3)c2c(=O)[nH]1 [Compound 17A, 3,4-Dihydro-2,6-dimethyl-4-oxo-5-[4-(6-trifluoromethylpyridylthio)]-quinazoline] | 8.6 µM | 8.1 µM | 15 µM
4 | Cc1nc2cccc(Sc3ccncc3)c2c(=O)[nH]1 [Compound 7A] | – | 14 µM | –
